Experimental data from patent US11141488B2, “Compositions comprising biodegradable copolymers for prolonged local release of an antibiotic” (DEXCEL PHARMA TECHNOLOGIES LTD., priority 2017, dated 2021).

Experiments:
[1] = Systemic gentamicin levels after single intraosseous injection in rat model of osteomyelitis; format: in vivo, Sprague Dawley (SD) rats; conditions: 24 hours post administration; single 0.05 ml intraosseous dose of RA:SA (70:30) copolymer with 20 wt % gentamicin sulfate; S. Aureus osteomyelitis model
Experimental: In order to determine the in-vivo systemic release levels of gentamicin following intraosseous administration, an animal model of osteomyelitis was used.
Animals were subjected to the following procedure: Following local anesthetics at least 30 minutes prior to surgical procedure, animals were anesthetized and the right hind limb was clipped of fur using an electric clipper. Thereafter, the clipped area was scrubbed using 4% w/v Chlorhexidine gluconate (septal scrub®) and then wiped with ethanol 70%. Longitudinal incision of the skin was made over the medial aspect of the proximal right tibia, about 1 cm in length. A cortical bone defect was produced by drilling a hole using 0.14 mm burr, just distal to the tibial tuberosity to through the cortical bone until the medullary cavity was reached. Thereafter, 19-21 G needle was introduced through the hole and along the bone to enable further insertion of the bacteria suspension and saline.
Osteomyelitis was induced by a single 20 μl insertion of bacterial suspension of S. Aureus to the medullary cavity of the right tibia, followed by flush with 20 μl of physiological saline. The tibial defect was closed by the use of bone wax and the skin was closed by surgical clips and polydine solution was topically applied.

[2] = 24 hours post administration; single 0.2 ml SC injection of alternating or semi-alternating RA:SA (70:30) copolymer with 20 wt % gentamicin sulfate
[3] = Local and systemic gentamicin levels after single intramuscular injection in rabbits; format: in vivo, New Zealand White (NZW) rabbits; conditions: 24 hours post administration; single 0.2 ml IM injection of alternating or semi-alternating RA:SA (70:30) copolymer with 20 wt % gentamicin sulfate
Experimental: Prior to injection, a skin incision was made in order to expose the muscle. The site of injection was marked by a non-absorbable suture at the upper layer of the muscle. […] Following injection, the skin was closed using surgical clips. The procedure was performed under general anesthesia. Animals were clinically observed for up to 8 weeks post-dosing, if applicable.
Tissue collection was performed by resecting the right paravertebral muscle, transversally slicing into ˜1 cm thick serial sections (total of 7 serial sections), when the injection site was located at the core center of the central section. […] At the injection site, one sample ( ? ) was taken.

Substance: gentamicin
- Total gentamicin concentration in rat plasma [1]: 0.19 µg/mL
- Total gentamicin concentration in rat plasma [2]: 0.51 µg/mL
- Total gentamicin concentration in rabbit plasma [3]: 0.06 µg/mL

Like-named read-outs stand apart in the source and are kept apart here.
